Measured values taken from US10087225B2, “Formulation of MK2 inhibitor peptides” (MOERAE MATRIX, INC., priority 2015, dated 2018).

Legend:
Assay in all cases: Kinase Profiling Assay
Assay type in all cases: biochemical
Ab1(Q252H)(h) = Ab1(Q252H)(h) (Homo sapiens, UniProt P00519, Q252H)
Aurora-A(h) = Aurora-A(h) (Homo sapiens, UniProt O14965)
CaMKIV(h) = CaMKIV(h) (Homo sapiens, UniProt Q16566)
CDK1/cyclinB(h) = CDK1/cyclinB(h) (Homo sapiens, UniProt P06493)
CDK2/cyclinE(h) = CDK2/cyclinE(h) (Homo sapiens, UniProt P24941)
CDK7/cyclinH/MAT1(h) = CDK7/cyclinH/MAT1(h) (Homo sapiens, UniProt P50613)
CHK1(h) = CHK1(h) (Homo sapiens, UniProt O14757)
CHK2(h) = CHK2(h) (Homo sapiens, UniProt O96017)
CK1γ2(h) = CK1γ2(h) (Homo sapiens, UniProt P78368)
c-RAF(h) = c-RAF(h) (Homo sapiens, UniProt P04049)
DAPK2(h) = DAPK2(h) (Homo sapiens, UniProt Q9UIK4)
EGFR(T790M)(h) = EGFR(T790M)(h) (Homo sapiens, UniProt P00533, T790M)
EGFR(T790M,L858R)(h) = EGFR(T790M,L858R)(h) (Homo sapiens, UniProt P00533, L858R/T790M)
Flt1(h) = Flt1(h) (Homo sapiens, UniProt P17948)
GSK3α(h) = GSK3α(h) (Homo sapiens, UniProt P49840)
HIPK3(h) = HIPK3(h) (Homo sapiens, UniProt Q9H422)
IKKβ(h) = IKKβ(h) (Homo sapiens, UniProt O14920)
Lck(h) = Lck(h) (Homo sapiens, UniProt P06239)
LKB1(h) = LKB1(h) (Homo sapiens, UniProt Q15831)
Lyn(h) = Lyn(h) (Homo sapiens, UniProt P07948)
MARK1(h) = MARK1(h) (Homo sapiens, UniProt Q9P0L2)
Met(M1268T)(h) = Met(M1268T)(h) (Homo sapiens, UniProt P08581, M1250T)
MSK1(h) = MSK1(h) (Homo sapiens, UniProt O75582)
mTOR(h) = mTOR(h) (Homo sapiens, UniProt P42345)
NEK7(h) = NEK7(h) (Homo sapiens, UniProt Q8TDX7)
PAR-1Bα(h) = PAR-1Bα(h) (Homo sapiens, UniProt Q7KZI7)
PDK1(h) = PDK1(h) (Homo sapiens, UniProt O15530)
PhKγ2(h) = PhKγ2(h) (Homo sapiens, UniProt P15735)
Pim-1(h) = Pim-1(h) (Homo sapiens, UniProt P11309)
PKCβII(h) = PKCβII(h) (Homo sapiens, UniProt P05771)
PKCϵ(h) = PKCϵ(h) (Homo sapiens, UniProt Q02156)
PKCη(h) = PKCη(h) (Homo sapiens, UniProt P24723)
ROCK-II(h) = ROCK-II(h) (Homo sapiens, UniProt O75116)
SAPK2b(h) = SAPK2b(h) (Homo sapiens, UniProt Q15759)
SAPK3(h) = SAPK3(h) (Homo sapiens, UniProt P53778)
Src(1-530)(h) = biological target: T1, Src(1-530)(h) (Homo sapiens, UniProt P12931)
T1 construct: Src(1-530)(h)

Src(T341M)(h) = Src(T341M)(h) (Homo sapiens, UniProt P12931, T341M)
Syk(h) = Syk(h) (Homo sapiens, UniProt P43405)
TAK1(h) = TAK1(h) (Homo sapiens, UniProt O43318)
TLK2(h) = TLK2(h) (Homo sapiens, UniProt Q86UE8)

Question: `CC(C)C[C@H](NC(=O)[C@H](C)NC(=O)[C@H](CCCCN)NC(=O)[C@H](C)NC(=O)[C@H](CCCNC(=N)N)NC(=O)[C@H](C)NC(=O)[C@H](CCC(N)=O)NC(=O)[C@H](CCCNC(=N)N)NC(=O)[C@H](C)NC(=O)[C@H](C)NC(=O)[C@H](C)NC(=O)[C@H](CCCNC(=N)N)NC(=O)[C@H](C)NC(=O)[C@@H](N)Cc1ccc(O)cc1)C(=O)N[C@@H](C)C(=O)N[C@@H](CCCNC(=N)N)C(=O)N[C@@H](CCC(N)=O)C(=O)N[C@@H](CC(C)C)C(=O)NCC(=O)N[C@H](C(=O)N[C@@H](C)C(=O)N[C@@H](C)C(=O)O)C(C)C` [MMI-0100] was tested. Which activity at 100 µM (Ab1(Q252H)(h)) did it give?
Answer: 105%

Question: And the activity at 100 µM (Aurora-A(h))?
Answer: 120%

Question: And the activity at 100 µM (CaMKIV(h))?
Answer: 87%

Question: What about the activity at 100 µM (CDK1/cyclinB(h)) of the same compound?
Answer: 96%

Question: And the activity at 100 µM (CDK2/cyclinE(h))?
Answer: 106%

Question: What about the activity at 100 µM (CDK7/cyclinH/MAT1(h)) of the same compound?
Answer: 89%

Question: What about the activity at 100 µM (CHK1(h)) of the same compound?
Answer: 97%

Question: What about the activity at 100 µM (CHK2(h)) of the same compound?
Answer: 104%

Question: What about the activity at 100 µM (CK1γ2(h)) of the same compound?
Answer: 119%

Question: And the activity at 100 µM (c-RAF(h))?
Answer: 97%

Question: What about the activity at 100 µM (DAPK2(h)) of the same compound?
Answer: 41%

Question: And the activity at 100 µM (EGFR(T790M)(h))?
Answer: 106%

Question: And the activity at 100 µM (EGFR(T790M,L858R)(h))?
Answer: 93%

Question: And the activity at 100 µM (Flt1(h))?
Answer: 109%

Question: And the activity at 100 µM (GSK3α(h))?
Answer: 183%

Question: What about the activity at 100 µM (HIPK3(h)) of the same compound?
Answer: 105%

Question: And the activity at 100 µM (IKKβ(h))?
Answer: 105%

Question: What about the activity at 100 µM (Lck(h)) of the same compound?
Answer: 346%

Question: And the activity at 100 µM (LKB1(h))?
Answer: 111%

Question: What about the activity at 100 µM (Lyn(h)) of the same compound?
Answer: 113%

Question: And the activity at 100 µM (MARK1(h))?
Answer: 109%

Question: And the activity at 100 µM (Met(M1268T)(h))?
Answer: 114%

Question: And the activity at 100 µM (MSK1(h))?
Answer: 52%

Question: What about the activity at 100 µM (mTOR(h)) of the same compound?
Answer: 102%

Question: What about the activity at 100 µM (NEK7(h)) of the same compound?
Answer: 97%

Question: What about the activity at 100 µM (PAR-1Bα(h)) of the same compound?
Answer: 62%

Question: What about the activity at 100 µM (PDK1(h)) of the same compound?
Answer: 144%

Question: What about the activity at 100 µM (PhKγ2(h)) of the same compound?
Answer: 62%

Question: What about the activity at 100 µM (Pim-1(h)) of the same compound?
Answer: 44%

Question: And the activity at 100 µM (PKCβII(h))?
Answer: 102%

Question: And the activity at 100 µM (PKCϵ(h))?
Answer: 102%

Question: What about the activity at 100 µM (PKCη(h)) of the same compound?
Answer: 105%

Question: And the activity at 100 µM (ROCK-II(h))?
Answer: 102%

Question: What about the activity at 100 µM (SAPK2b(h)) of the same compound?
Answer: 99%

Question: What about the activity at 100 µM (SAPK3(h)) of the same compound?
Answer: 106%

Question: And the activity at 100 µM (Src(1-530)(h))?
Answer: 95%

Question: And the activity at 100 µM (Src(T341M)(h))?
Answer: 98%

Question: What about the activity at 100 µM (Syk(h)) of the same compound?
Answer: 45%

Question: And the activity at 100 µM (TAK1(h))?
Answer: 116%

Question: What about the activity at 100 µM (TLK2(h)) of the same compound?
Answer: 113%
